Measurements: patent US7572603B2, “Alpha-2 adrenergic receptor polymorphisms” (University of Cincinnati, priority 2000, dated 2009)

The chains behind the UniProt entries cited, without tags or fusion partners.
UniProt P18825, whole entry L239R/S401I/R446P: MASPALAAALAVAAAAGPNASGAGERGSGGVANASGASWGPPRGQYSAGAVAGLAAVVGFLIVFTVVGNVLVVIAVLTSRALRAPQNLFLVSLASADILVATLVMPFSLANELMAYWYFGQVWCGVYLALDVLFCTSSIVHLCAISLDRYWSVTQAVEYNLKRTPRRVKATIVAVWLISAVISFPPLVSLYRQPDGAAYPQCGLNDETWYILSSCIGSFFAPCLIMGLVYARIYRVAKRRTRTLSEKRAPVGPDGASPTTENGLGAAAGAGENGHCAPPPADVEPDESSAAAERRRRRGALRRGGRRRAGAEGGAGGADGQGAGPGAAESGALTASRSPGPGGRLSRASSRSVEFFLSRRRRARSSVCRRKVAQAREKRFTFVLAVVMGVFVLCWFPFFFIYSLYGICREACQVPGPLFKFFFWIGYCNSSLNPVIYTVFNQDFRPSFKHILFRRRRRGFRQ

Target: wild-type alpha-2CAR (Homo sapiens, UniProt P18825, L239R/R446P/S401I)
Test: Inhibition of forskolin-stimulated adenylyl cyclase, CHO cell membranes
Type: biochemical
Set-up: expressed in transfected cells; membranes or intact cells
Details: higher expressing line, 1375 fmol/mg

For `CNC[C@H](O)c1ccc(O)c(O)c1` [epinephrine], the “maximal inhibition of forskolin-stimulated adenylyl cyclase” value was 60±3%.
